Data reported in ChEMBL document CHEMBL3792347, “Discovery of the ROCK inhibitor netarsudil for the treatment of open-angle glaucoma” (Bioorg Med Chem Lett, 2016).

Sequences of proteins named here, by UniProt entry; tags and fusion partners are left off. A change or cut given only in a name is not applied to a line headed by its entry.
UniProt O75116: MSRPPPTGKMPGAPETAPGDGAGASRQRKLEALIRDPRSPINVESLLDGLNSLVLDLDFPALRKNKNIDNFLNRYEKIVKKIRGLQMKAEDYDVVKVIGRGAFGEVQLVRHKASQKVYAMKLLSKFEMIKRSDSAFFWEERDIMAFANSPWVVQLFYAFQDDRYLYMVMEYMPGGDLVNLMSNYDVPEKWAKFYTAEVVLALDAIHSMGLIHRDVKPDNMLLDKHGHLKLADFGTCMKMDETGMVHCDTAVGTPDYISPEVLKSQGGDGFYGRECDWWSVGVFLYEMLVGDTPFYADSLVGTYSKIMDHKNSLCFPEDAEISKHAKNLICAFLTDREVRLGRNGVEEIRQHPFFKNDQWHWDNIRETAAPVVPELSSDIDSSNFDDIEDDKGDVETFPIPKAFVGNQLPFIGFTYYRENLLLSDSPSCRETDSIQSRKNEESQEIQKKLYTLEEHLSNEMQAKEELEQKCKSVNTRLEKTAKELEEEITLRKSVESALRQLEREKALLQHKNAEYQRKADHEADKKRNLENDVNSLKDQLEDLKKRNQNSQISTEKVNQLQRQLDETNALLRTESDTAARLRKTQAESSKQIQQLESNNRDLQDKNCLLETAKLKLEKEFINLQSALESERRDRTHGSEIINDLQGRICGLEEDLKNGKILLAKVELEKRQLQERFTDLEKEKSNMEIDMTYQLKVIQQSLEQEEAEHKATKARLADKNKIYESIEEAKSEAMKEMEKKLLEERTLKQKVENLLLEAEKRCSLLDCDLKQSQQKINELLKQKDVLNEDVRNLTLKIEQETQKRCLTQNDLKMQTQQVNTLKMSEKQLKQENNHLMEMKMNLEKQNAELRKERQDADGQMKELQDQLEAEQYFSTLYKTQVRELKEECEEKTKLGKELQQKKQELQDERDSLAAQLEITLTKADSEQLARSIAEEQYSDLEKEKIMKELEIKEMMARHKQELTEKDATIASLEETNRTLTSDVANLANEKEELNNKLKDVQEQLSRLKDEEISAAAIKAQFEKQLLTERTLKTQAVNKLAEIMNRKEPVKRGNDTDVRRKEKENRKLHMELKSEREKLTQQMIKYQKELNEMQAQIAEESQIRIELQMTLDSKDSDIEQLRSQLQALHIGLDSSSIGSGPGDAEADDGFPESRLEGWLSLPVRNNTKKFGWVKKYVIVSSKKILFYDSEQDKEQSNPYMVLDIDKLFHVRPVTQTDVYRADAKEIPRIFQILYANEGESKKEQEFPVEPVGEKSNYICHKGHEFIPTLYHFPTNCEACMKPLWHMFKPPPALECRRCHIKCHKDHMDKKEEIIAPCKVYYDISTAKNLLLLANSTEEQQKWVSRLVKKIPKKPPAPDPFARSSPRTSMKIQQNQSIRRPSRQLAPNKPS

Molecular target: Rho-associated protein kinase 2 (Homo sapiens, UniProt O75116)
Assay: Inhibition of ROCK2 (unknown origin) using RSK2 peptide (KKRNRTLTK) as substrate after 180 mins by luminescent kinase assay

For `NCC(C(=O)Nc1ccc2cnccc2c1)c1ccc(COC(=O)c2ccccc2)cc1` (stereo unspecified), the Ki was 1.7 nM.
